Data taken from BindingDB's records for doi:10.1016/s0165-6147(97)01043-2 (Roche Bioscience, 1997).
pKi: −log10 of the molar value. Several values for one entry are separate records, joined by “and”; a condition that tells them apart may be missing. Identical values can stand only once.

Amino acid sequences for entries named in this document (tags omitted).
UniProt P32305, whole entry: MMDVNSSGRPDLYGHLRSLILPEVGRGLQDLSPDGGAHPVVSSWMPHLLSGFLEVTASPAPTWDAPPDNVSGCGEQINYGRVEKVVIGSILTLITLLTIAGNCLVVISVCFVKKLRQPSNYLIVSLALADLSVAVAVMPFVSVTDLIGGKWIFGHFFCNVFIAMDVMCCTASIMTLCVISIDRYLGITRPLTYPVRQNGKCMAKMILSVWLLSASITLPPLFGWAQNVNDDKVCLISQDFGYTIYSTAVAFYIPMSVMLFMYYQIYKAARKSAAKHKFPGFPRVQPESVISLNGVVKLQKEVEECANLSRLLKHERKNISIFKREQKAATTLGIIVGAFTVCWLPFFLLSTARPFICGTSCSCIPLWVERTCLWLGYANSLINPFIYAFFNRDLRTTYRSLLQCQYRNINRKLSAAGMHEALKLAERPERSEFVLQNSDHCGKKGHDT
UniProt P34969, whole entry: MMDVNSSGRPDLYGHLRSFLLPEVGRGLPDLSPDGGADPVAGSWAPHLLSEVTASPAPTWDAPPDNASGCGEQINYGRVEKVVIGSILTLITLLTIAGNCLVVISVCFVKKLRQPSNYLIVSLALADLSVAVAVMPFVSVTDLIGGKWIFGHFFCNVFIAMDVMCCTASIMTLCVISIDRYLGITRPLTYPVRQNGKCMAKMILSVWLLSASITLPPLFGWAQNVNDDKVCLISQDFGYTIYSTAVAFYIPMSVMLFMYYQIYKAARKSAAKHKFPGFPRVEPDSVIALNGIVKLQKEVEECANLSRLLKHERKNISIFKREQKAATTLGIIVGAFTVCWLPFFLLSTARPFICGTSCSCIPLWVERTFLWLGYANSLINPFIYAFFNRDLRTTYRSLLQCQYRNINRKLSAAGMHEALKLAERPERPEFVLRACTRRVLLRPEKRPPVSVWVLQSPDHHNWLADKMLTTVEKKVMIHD

Legend:
[1] = target: 5-hydroxytryptamine receptor 7 (Rattus norvegicus, UniProt P32305)
[2] = target: 5-hydroxytryptamine receptor 7 (Homo sapiens, UniProt P34969)

Row | Structure (SMILES) | pKi [1] | pKi [2]
1 | CCCN(CCC)C1CCc2cccc(O)c2C1 (centres undefined) | 7.30 | 6.30 and 6.90
2 | CCN(CC)C(=O)[C@@H]1C=C2c3cccc4[nH]cc(c34)C[C@H]2N(C)C1 [(4R,7R)-N,N-diethyl-6-methyl-6,11-diazatetracyclo[7.6.1.0^{2,7}.0^{12,16}]hexadeca-1(16),2,9,12,14-pentaene-4-carboxamide] | 8.00 | –
3 | COc1ccc2[nH]cc(CCN)c2c1 [tryptamine, 5-Methoxy] | 8.80 | –
